Experimental data reported in patent EP4063344A1, “SALT OF 2-ADAMANTYL ACETIC ACID HAVING ANTI-VIRAL ACTIVITY, FORMULATIONS THEREOF AND USES THEREOF” (Sciamannini, Umbro, priority 2021, dated 2022).

Tested on: mice

1-hexadecanaminium, N,N,N,trimethyl-tricyclo[3.3.1.13,7]decane-2-acetate(1:1) [salt of the invention]
LD50 (oral in mice): > 2000 mg/kg
